{"sequences": {"note": "Amino acid sequences for entries named in this document (tags omitted).", "UniProt Q9UQD0, whole entry": "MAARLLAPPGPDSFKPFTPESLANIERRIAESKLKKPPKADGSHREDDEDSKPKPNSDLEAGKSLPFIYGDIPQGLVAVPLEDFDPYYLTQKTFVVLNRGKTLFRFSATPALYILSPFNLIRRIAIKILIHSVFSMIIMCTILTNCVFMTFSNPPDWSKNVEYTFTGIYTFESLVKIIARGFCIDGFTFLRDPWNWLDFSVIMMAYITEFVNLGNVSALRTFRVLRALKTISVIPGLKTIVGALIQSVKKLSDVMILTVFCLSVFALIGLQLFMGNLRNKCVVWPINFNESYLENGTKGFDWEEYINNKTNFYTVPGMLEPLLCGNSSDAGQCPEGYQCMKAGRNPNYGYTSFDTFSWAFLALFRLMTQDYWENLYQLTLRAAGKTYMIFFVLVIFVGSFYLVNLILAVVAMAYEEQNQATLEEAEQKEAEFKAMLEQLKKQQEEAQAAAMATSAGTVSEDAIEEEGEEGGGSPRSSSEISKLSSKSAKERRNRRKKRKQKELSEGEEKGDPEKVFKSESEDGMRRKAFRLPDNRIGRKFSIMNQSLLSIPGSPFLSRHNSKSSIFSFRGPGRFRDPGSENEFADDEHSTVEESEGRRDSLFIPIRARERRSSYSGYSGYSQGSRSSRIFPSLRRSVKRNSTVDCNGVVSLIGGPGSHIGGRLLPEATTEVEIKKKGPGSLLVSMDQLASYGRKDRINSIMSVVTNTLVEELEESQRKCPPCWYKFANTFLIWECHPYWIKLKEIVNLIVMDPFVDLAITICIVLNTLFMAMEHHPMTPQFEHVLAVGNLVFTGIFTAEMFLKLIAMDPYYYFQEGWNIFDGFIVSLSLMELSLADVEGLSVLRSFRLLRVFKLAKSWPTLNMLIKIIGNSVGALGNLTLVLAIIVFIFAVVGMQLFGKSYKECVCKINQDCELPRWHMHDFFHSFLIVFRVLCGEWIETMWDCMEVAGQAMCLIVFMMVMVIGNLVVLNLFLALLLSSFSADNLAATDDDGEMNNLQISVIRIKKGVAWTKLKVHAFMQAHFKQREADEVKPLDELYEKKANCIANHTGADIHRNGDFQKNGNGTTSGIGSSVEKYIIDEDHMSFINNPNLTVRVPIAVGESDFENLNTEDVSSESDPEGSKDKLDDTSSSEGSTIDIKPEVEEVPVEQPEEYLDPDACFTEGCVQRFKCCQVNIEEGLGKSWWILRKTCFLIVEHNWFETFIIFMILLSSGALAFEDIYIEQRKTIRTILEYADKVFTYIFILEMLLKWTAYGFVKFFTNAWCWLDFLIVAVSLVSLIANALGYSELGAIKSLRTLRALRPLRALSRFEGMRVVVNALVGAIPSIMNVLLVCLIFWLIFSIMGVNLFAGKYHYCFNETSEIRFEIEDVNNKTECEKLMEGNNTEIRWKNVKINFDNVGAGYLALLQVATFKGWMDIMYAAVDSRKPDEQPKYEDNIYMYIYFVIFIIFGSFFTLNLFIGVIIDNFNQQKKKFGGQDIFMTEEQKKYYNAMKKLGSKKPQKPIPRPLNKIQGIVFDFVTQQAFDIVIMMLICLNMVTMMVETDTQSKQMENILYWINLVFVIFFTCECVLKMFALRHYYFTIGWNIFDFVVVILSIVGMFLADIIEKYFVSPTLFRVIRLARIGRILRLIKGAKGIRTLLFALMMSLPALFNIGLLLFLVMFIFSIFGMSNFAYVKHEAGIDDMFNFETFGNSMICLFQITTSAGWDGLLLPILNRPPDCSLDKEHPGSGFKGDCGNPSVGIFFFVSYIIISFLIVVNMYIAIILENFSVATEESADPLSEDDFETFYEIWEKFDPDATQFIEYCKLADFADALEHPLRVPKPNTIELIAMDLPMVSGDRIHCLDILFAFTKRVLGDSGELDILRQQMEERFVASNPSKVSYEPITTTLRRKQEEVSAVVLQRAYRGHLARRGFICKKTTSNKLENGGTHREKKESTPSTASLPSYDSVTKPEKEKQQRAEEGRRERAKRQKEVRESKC"}, "source": "paper PMC9304232", "about": "(Epilepsia, 2022)", "key": {"[1]": {"molecular_target": "T1, hNaV1.6 (Homo sapiens, UniProt Q9UQD0)", "experiment": "Peak INa tonic block", "type": "cell-based", "conditions": "TB IC50 / persistent INa IC50"}, "[2]": {"molecular_target": "T1, hNaV1.6", "experiment": "Peak INa use‐dependent block", "type": "cell-based"}, "[3]": {"tested_on": "hippocampal CA1 pyramidal neurons", "experiment": "Evoked action potential firing", "type": "cell-based", "conditions": "wild‐type mouse CA1 neurons"}, "[4]": {"molecular_target": "T1, hNaV1.6", "experiment": "Peak INa voltage‐dependent block", "conditions": "VDB IC50 / persistent INa IC50"}}}
{"smiles": "NC(=O)N1c2ccccc2C=Cc2ccccc21", "note": "[Carbamazepine, carbamazepine]", "values": [{"measurement": "Ratio to persistent INa (peak INa TB)", "setting": "[1]", "value": 30}, {"measurement": "Ratio to persistent INa (peak INa UDB)", "setting": "[2]; UDB IC50 / persistent INa IC50", "value": 18}, {"measurement": "Ratio to peak INa TB (peak INa UDB)", "setting": "[2]; preference of use‐dependent block over tonic block", "value": 1.6}, {"measurement": "Neuronal excitability, number of evoked APs", "setting": "[3]; 45 µmol·L^–1", "value": "more robust reduction"}, {"measurement": "AP amplitude", "setting": "[3]; 45 µmol·L^–1, +200 pA", "value": "more pronounced reduction"}, {"measurement": "Ratio to persistent INa (peak INa VDB)", "setting": "[4]", "value": ".6"}]}
